These results are taken from paper PMC9061749, “Activation and allosteric regulation of the orphan GPR88-Gi1 signaling complex” (Nature Communications, 2022).

This test concerns the target T1, wild-type human GPR88 with BRIL fused to the N-terminus (N-BRIL fusion construct) (human, UniProt Q9GZN0 1-384).
T1 construct: GPR88, human; BRIL was fused to the N-terminus to raise expression; also called BRIL-GPR88; GPCR88; not shown: Flag, N-terminal, kept; BRIL, N-terminal, kept
T1 sequence (looked up): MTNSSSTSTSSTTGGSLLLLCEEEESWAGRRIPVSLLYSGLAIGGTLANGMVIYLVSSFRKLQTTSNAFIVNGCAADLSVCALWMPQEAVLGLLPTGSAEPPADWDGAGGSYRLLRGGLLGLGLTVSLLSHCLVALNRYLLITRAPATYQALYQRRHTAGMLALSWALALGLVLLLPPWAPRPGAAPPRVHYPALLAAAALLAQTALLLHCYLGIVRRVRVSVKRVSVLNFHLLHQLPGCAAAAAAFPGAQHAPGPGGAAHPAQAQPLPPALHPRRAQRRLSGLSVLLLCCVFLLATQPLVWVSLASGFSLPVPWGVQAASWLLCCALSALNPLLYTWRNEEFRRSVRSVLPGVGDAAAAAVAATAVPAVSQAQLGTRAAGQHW
The test is described as follows: cryo-EM structure; GPR88-Gi1-scFv16 complex with 2-PCCA (100 µM at assembly, 10 µM in later buffers); purified GPR88 and Gi1 mixed on ice, apyrase added, complex held on anti-FLAG M1 resin, scFv16 added, SEC; 20 mM HEPES pH 7.5, 100 mM NaCl, LMNG/GDN/CHS. Conditions: both partners purified.

B1: human Gαi1 (Gα subunit of the Gi1 heterotrimer) (natural protein)
chain: MGCTLSAEDKAAVERSKMIDRNLREDGEKAAREVKLLLLGAGESGKSTIVKQMKIIHEAGYSEEECKQYKAVVYSNTIQSIIAIIRAMGRLKIDFGDSARADDARQLFVLAGAAEEGFMTAELAGVIKRLWKDSGVQACFNRSREYQLNDSAAYYLNDLDRIAQPNYIPTQQDVLRTRVKTTGIVETHFTFKDLHFKMFDVGGQRSERKKWIHCFEGVTAIIFCVALSDYDLVLAEDEEMNRMHESMKLFDSICNNKWFTDTSIILFLNKKDLFEEKIKKSPLTICYPEYAGSNTYEEAAAYIQCQFEDLNKRKDTKEIYTHFTCATDTKNVQFVFDAVTDVIIKNNLKDCGLF
notes: Gαi1, human, cloned into pFastbac1; no tag is named; The same chain as in m2; it was never tested alone, only within the heterotrimer in the structures; source: Trichoplusia ni Hi5 insect cells, co-expressed with Gβ1γ2, purified as the heterotrimer (Ni-NTA)
For B1, the binding result is on record as “binds”.
